Columns and labels:
Homo sapiens [1] = species: Homo sapiens; experiment: Selectivity index, ratio of IC50 for PDGFRbeta (unknown origin) to IC50 for c-Met (unknown origin)
Homo sapiens [2] = species: Homo sapiens; experiment: Selectivity index, ratio of IC50 for KDR (unknown origin) to IC50 for c-Met (unknown origin)

For `COc1cc2c(Oc3ccc(NC(=O)c4nnn(-c5ccc(F)cc5)c4C(F)(F)F)cc3F)ccnc2cc1OCCCN1CCCC1`, the Ratio IC50 (Homo sapiens [1]) was 15.6 and the Ratio IC50 (Homo sapiens [2]) was 62.9.
